Source: patent publication US20250281460A1, “PEGYLATED BILIRUBIN FOR THE TREATMENT OF […], OBESITY, FATTY LIVER DISEASE, CARDIOVASCULAR DISEASES AND TYPE II DIABETES” (The University of Toledo, priority 2019, published 2025)

Target: T1, PPARα (Mus musculus, UniProt P23204)
T1 sequence (P23204 1-468): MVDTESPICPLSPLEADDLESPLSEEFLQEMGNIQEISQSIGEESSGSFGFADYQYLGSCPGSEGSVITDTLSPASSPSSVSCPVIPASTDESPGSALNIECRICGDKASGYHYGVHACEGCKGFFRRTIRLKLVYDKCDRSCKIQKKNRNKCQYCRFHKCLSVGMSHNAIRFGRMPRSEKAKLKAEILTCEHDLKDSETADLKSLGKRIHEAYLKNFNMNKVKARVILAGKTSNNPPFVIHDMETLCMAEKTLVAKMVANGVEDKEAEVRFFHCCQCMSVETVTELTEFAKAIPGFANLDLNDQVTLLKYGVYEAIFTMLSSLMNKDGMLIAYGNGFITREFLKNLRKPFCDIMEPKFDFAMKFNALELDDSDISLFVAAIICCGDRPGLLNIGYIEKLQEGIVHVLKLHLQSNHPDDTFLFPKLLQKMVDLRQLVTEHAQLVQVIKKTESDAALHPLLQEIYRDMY
Method: Cells were crosslinked with formaldehyde with a final concentration of 1% in media while shaking at room temperature for 10 min. The activity of the formaldehyde was quench with the addition of glycine while rocking for 5 min at room temperature. Cells were washed twice with 1×PBS, collected into a 15 ml conical tube and spun down at 3,000 rpm for 5 min. Pellets were rapidly frozen on dry ice ethanol mix and stored at −80° C. for a minimum of 1 hour or immediately resuspended in a series of lysis buffers (see table for ChIP buffer table) containing protease inhibitors for 5 min. Cells were sonicated for approximately 8 min per sample. The lysates were centrifuged for 10 min at 4° C. at 13,000 rpm. The lysates were pre-cleared in BSA/Salmon sperm blocked beads rotating for 2 hours at 4° C. […] Lysates were then incubated with Agarose A beads and rotated for 4 hours at 4° C. The samples were then washed with a ChIP washing buffer (see table for ChIP buffer table) 5 times. The protein was eluted in an Elution buffer at 65° C. for 30 min shaking every 2 min. The eluted samples were transferred to another tube and incubated at 65° C. overnight to reverse crosslinking. The samples were purified after 1-hour incubation with Proteinase K at 55° C. with a isopropanol/chloroform/ethanol mixture. DNA was quantified on a NanoDrop 2000 spectrophotometer (Thermo Fisher Scientific, Wilmington, DE). PCR amplification of the genomic DNA was performed by quantitative real-time PCR using TrueAmp SYBR Green qPCR SuperMix (Advance Bioscience). The thermocycling protocol consisted of 2 min at 50° C. and then 10 min at 95° C., 48 cycles of 30 sec at 95° C., 1 min at 65° C.

## Cc1cccc(Nc2cc(Cl)nc(SCC(=O)O)n2)c1C [WY 14,643, WY-14,643]
50 μM, 24 hours
  PPARα occupancy at the 13K enhancer of the Ucp1: stimulated
  PPARα occupancy at the −3306 to −3109 region of the Cpt1 promoter: significantly higher
BAT cells
  occupancy of PPARα at 13K enhancer of the Ucp1: increased
  occupancy of PPARα at the Cpt1 promoter: increased
  occupancy of PPARα at the enhancer region of the Adrb3 promoter: did not increase
